Values quoted from earlier work in paper PMC12202309 (International Journal of Neuropsychopharmacology, 2025).

Conditions: cited from earlier work

## Cc1cc2c(s1)Nc1ccccc1N=C2N1CCN(C)CC1 [olanzapine]
  Biopharmaceutical Classification System class: Class II
